Measurements: patent US20120277236A1

Amino acid sequences for entries named in this document (tags omitted). Residues count along the entry.
UniProt P14780, 20-707 limits assumed: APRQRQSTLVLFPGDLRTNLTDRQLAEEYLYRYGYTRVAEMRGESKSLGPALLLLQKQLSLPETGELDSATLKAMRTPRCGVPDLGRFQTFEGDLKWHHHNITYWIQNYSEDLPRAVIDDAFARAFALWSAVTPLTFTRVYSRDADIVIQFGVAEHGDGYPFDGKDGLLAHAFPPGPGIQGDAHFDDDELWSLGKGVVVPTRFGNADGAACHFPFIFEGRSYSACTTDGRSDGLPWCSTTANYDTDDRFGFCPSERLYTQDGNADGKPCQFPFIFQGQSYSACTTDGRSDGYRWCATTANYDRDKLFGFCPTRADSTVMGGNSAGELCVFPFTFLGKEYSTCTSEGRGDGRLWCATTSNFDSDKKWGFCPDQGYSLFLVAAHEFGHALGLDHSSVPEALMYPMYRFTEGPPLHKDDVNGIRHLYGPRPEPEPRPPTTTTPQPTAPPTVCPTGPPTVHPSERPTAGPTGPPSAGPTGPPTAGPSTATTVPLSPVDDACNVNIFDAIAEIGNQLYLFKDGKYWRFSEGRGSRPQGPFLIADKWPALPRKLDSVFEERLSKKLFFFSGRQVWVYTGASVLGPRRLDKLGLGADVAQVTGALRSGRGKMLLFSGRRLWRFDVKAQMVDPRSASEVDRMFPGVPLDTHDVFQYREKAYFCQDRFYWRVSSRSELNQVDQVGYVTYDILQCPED
UniProt P14780, 107-707 limits assumed: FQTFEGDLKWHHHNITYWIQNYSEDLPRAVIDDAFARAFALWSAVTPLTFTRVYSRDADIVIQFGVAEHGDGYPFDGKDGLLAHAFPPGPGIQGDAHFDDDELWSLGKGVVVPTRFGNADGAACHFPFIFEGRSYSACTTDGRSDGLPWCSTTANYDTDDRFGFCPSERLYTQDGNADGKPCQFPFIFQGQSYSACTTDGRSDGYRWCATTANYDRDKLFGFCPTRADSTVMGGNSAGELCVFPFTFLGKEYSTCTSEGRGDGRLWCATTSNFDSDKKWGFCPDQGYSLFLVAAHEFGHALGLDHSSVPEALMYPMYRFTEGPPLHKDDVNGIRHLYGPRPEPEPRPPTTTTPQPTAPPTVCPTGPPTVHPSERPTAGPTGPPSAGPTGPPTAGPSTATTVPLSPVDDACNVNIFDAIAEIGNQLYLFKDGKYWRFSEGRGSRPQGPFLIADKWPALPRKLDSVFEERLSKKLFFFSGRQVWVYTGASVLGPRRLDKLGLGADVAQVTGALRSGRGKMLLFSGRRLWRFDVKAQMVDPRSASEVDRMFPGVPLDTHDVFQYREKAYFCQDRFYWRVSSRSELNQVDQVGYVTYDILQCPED

Key:
[1] = tested on: MMP-9 expression in HT-1080 cells; assay: Western blot of MMP-9 expression; conditions: 100 μM, 18 hours, Western blotting
[2] = tested on: MDA-MB-435/GFP tumor xenografts; assay: MDA-MB-435/GFP tumor xenograft in mice; conditions: 20 mg/kg
[3] = tested on: ERK1/2 activation in COS-1 cells expressing MMP-9 cDNA; assay: Western blot of ERK1/2 activation; conditions: COS-1 cells expressing MMP-9, serum starved 18 hours, 100 μM
[4] = molecular target: APMA-activated MMP-9 (Homo sapiens, UniProt P14780); assay: Fluorogenic peptide assay of MMP-9 catalytic activity; conditions: 100 μM, APMA-activated MMP-9, fluorogenic MCA peptide
[5] = tested on: HeLa cells stably expressing MT1-MMP-GFP; assay: 3D invasion assay, MT1-MMP-mediated cell invasion; conditions: 18 hours at 37° C.
[6] = tested on: MDA-MB-435 cells; assay: Cell invasion assay, MDA-MB-435; conditions: data not shown
[7] = tested on: HT-1080 cells; assay: 3D type I collagen invasion assay, HT-1080; conditions: 100 μM, 18-hour incubation
[8] = tested on: COS-1 cells; assay: CellTiter-Glo cell viability / cytotoxicity assay; conditions: 24 hours
[9] = molecular target: MMP-9 homodimer (Homo sapiens, UniProt P14780); assay: Co-immunoprecipitation assay of MMP-9 homodimerization; conditions: COS-1 cells with proMMP-9/Myc and proMMP-9/HA, 100 μM

CCCc1cc(=O)nc(SCC(=O)Nc2ccc(OC(F)F)cc2)[nH]1
effect on MMP-9 expression [1]: No effect on MMP-9 expression | body weight and other signs of toxicity ([2]; 14-week period): No significant change in body weight nor other signs of toxicity | dimensions of tumor foci area in the lung ([2]; 6 days per week): significantly decreased | percent of mice displaying lung metastases ([2]; 6 days per week): significantly decreased | tumor incidence ([2]; 6 days per week): unaffected | extent of lung metastasis ([2]; 6 days per week, lung slices by fluorescent microscopy): dramatically reduced | tumor growth ([2]; intraperitoneal or intratumoral on alternating days, 6 days per week): profound delay in tumor growth | activation of ERK1/2 [3]: decreased activation of ERK1/2 was observed | inhibition of catalytic activity of MMP-9 [4]: did not inhibit the catalytic activity of MMP-9 | effect on MT1-MMP-mediated cancer cell invasion [5]: did not interfere with MT1-MMP-mediated cancer cell invasion | MDA-MB-435 cell invasion [6]: Inhibition of MDA-MB-435 cell invasion was also observed | cell invasive ability of HT-1080 cells [7]: significantly inhibited | LD50 [8]: 3.5 ± 0.3 mM | MMP-9 homodimer formation [9]: blocked MMP-9 homodimer formation
